Measurements from US11111253B2, “6-aryl-7-substituted-3-(1H-pyrazol-5-yl)-7H-[1,2,4]triazolo[3,4-b][1,3,4]thiadiazines as inhibitors of the STAT3 pathway with anti-proliferative activity” (UNIVERSITY OF PITTSBURGH—OF THE COMMONWEALTH SYSTEM OF …, priority 2015, dated 2021).

System: STAT3
Experiment: HCS STAT3 assay
Format: cell-based
Method: Compound samples (in 3-5 mg quantities) were evaluated in a variety of assays. All compound submissions were fully characterized (1H, 13C, IR, FIRMS), satisfied purity criteria (≥95% LC/MC, ELS).

Row | Compound | IC50 (Table 4) [µM] | IC50 (Table 5, * average of 2 experiments) [µM]
1 | 1-(3-(6-(4-Methoxyphenyl)-7-methyl-7H-[1,2,4]triazolo[3,4-b][1,3,4]thiadiazin-3-yl)-5-phenyl-1H-pyrazol-1-yl)ethanone [8A] | 17.9 ± 22.9 | 
2 | COc1ccc(C2=Nn3c(nnc3-c3cc(-c4ccc(Cl)cc4)n[nH]3)S[C@@H]2C)cc1 (single isomer, unassigned; ent-1) [24 (ent-1)] |  | 5.72
